Key:
hMC4-R [1] = target: T1, hMC4-R (Homo sapiens, UniProt P32245); assay: cyclic AMP bioassay (ECL) in CHO-K1 cells; assay type: cell-based; conditions: Table 11
T1 construct: expressed in transfected cells; host or cells: CHO-K1

The chains behind the UniProt entries cited, without tags or fusion partners. Where a name states a change or a piece, a line headed by the entry shows the natural chain unless it says otherwise.
UniProt P32245, whole entry: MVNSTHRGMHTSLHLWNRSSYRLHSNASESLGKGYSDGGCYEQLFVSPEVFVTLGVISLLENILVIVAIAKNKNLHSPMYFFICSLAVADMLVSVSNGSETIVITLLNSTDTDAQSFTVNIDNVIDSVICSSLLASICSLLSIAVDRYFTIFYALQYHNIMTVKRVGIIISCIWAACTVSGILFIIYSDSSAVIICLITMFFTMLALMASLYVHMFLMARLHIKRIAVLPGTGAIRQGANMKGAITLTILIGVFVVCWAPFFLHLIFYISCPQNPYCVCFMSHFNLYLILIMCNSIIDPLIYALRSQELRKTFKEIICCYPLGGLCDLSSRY
UniProt P41968: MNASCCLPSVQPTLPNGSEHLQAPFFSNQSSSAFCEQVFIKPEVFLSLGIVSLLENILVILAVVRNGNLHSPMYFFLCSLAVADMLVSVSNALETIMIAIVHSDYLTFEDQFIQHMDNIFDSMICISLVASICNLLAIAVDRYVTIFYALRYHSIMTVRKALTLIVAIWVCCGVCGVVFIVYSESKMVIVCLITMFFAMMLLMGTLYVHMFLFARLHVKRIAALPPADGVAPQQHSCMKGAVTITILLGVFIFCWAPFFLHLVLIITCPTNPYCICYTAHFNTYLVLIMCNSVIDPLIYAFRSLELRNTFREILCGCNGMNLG
UniProt Q01726: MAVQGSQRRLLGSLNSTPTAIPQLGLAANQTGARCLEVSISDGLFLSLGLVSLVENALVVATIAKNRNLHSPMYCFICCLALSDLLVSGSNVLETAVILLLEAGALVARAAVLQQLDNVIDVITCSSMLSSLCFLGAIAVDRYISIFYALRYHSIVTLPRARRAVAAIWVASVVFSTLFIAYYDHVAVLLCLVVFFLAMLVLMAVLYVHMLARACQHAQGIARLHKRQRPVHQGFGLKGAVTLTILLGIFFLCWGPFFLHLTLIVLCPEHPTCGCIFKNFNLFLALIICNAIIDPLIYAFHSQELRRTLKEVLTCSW

hMC4-R [2] = target: T1, hMC4-R; assay: Radioligand binding assay, [125I]-NDP-α-MSH competition, CHO-K1 membranes; conditions: Ki hMC4, Table 7
Protocol: (§1) Cellular membranes used for the in vitro receptor binding assays were obtained from transgenic CHO-K1 cells stably expressing hMC-R receptor subtypes 1, 3, 4 or 5. […] The pellets were resuspended in the same buffer and centrifuged at 50,000 g for 10 minutes at approximately 4° C. The washed pellets containing the cellular membranes were stored at approximately −80° C.
(§2) Cell membranes (1-10 μg protein/well) prepared as described above were incubated in 50 mM Tris-HCl at pH 7.4 containing 0.2% bovine serum albumin (BSA), 5 mM MgCl2, 1 mM CaCl2 and 0.1 mg/mL bacitracin, with increasing concentrations of the test compound and 0.1-0.3 nM [^25I]-NDP-α-MSH for approximately 90-120 minutes at approximately 37° C. […] Filters were washed three times with 50 mM Tris-HCl at pH 7.4 at a temperature of approximately 0-4° C. and then assayed for radioactivity using a Packard Topcount® scintillation counter. Binding data were analyzed by computer-assisted non-linear regression analysis (XL fit; IDBS).

hMC3-R = target: T2, hMC3-R (Homo sapiens, UniProt P41968); assay: as above; conditions: Ki hMC3, Table 7
T2 construct: expressed in transfected cells; host or cells: CHO-K1
Protocol: as §1, §2

hMC1-R = target: T3, hMC1-R (Homo sapiens, UniProt Q01726); assay: as above; conditions: Ki hMC1, Table 7
T3 construct: expressed in transfected cells; host or cells: CHO-K1
Protocol: as §1, §2

SMILES	Ki (hMC4-R [2]) [nM]	Ki (hMC3-R) [nM]	also measured
N=C(N)NCCC[C@@H]1NC(=O)[C@@H](Cc2ccccc2)NC(=O)[C@H](Cc2cnc[nH]2)NC(=O)[C@H](CCC(=O)O)NC(=O)[C@@H](NC(=O)CN2C(=O)CNC2=O)CSSC[C@@H](C(N)=O)NC(=O)[C@H](Cc2c[nH]c3ccccc23)NC1=O [Hydantoin(C(O)-(Gly-Gly))-c(Cys-Glu-His-D-Phe-Arg-Trp-Cys)-NH2]	–	–	EC50 (hMC4-R [1]): 0.214 nM
CC(C)[C@@H]1NC(=O)N(CC(=O)N[C@H]2CSSC[C@@H](C(N)=O)NC(=O)[C@H](Cc3c[nH]c4ccccc34)NC(=O)[C@H](CCCNC(=N)N)NC(=O)[C@@H](Cc3ccccc3)NC(=O)[C@H](Cc3cnc[nH]3)NC(=O)[C@@H](C)NC2=O)C1=O [Hydantoin(C(O)-(Val-Gly))-c(Cys-D-Ala-His-D-Phe-Arg-Trp-Cys)-NH2]	8.66	–	–
C[C@H]1NC(=O)[C@@H](NC(=O)CN2C(=O)CNC2=O)CSSC[C@@H](C(N)=O)NC(=O)[C@H](Cc2c[nH]c3ccccc23)NC(=O)[C@H](CCCNC(=N)N)NC(=O)[C@@H](Cc2ccccc2)NC(=O)[C@H](Cc2cnc[nH]2)NC1=O [Hydantoin(C(O)-(Gly-Gly))-c(Cys-D-Ala-His-D-Phe-Arg-Trp-Cys)-NH2]	8.32	69.7	–
CCCC[C@@H](C(=O)N[C@H]1CSSC[C@@H](C(N)=O)NC(=O)[C@H](Cc2c[nH]c3ccccc23)NC(=O)[C@H](CCCNC(=N)N)NC(=O)[C@@H](Cc2ccccc2)NC(=O)[C@H](Cc2cnc[nH]2)NC(=O)[C@@H](C)NC1=O)N1C(=O)N[C@@H](C(C)C)C1=O [Hydantoin(C(O)-(Val-Nle))-c(Cys-D-Ala-His-D-Phe-Arg-Trp-Cys)-NH2]	–	–	Ki (hMC1-R): 33.7 nM
CC[C@H](C)[C@@H]1NC(=O)N([C@H]2CSSC[C@@H](C(N)=O)NC(=O)[C@H](Cc3c[nH]c4ccccc34)NC(=O)[C@H](CCCNC(=N)N)NC(=O)[C@@H](Cc3ccccc3)NC(=O)[C@H](Cc3cnc[nH]3)NC(=O)[C@@H](C)NC2=O)C1=O [c[Hydantoin(C(O)-(Ile-Cys))-D-Ala-His-D-Phe-Arg-Trp-Cys]-NH2]	–	1760	–

— patent US20120135923A1, “Use of Melanocortins to Treat Dyslipidemia” (IPSEN PHARMA, S.A.S., priority 2009, published 2012)
